## Ab-91 heavy chain CDR variants: yeast mating affinities

The target is the same throughout: PDVDLGDISGINAS, from the HR2 region of SARS-CoV-2 spike.

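The starting antibody came from a phage panning campaign against this peptide. Library AAYL51 holds single substitutions and randomly drawn double and triple substitutions in the CDRs. The scFvs were displayed on barcoded MATa yeast, the peptide on MATalpha yeast. After mating in shaken culture at 30 °C for 16 h, diploids were selected and their barcode pairs sequenced. Each replicate has its own calibration line, from reference interactions of the BCL2 family. Each pool was mated in three replicate cultures.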

Each scFv is VL, a (GGGGS)3 linker, VH, as in the parent Ab-91, and differs from it in the CDRs of the heavy chain only.
VL: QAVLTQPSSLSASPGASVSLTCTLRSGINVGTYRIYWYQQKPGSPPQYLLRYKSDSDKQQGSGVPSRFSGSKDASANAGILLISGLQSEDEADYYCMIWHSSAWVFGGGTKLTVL
VH: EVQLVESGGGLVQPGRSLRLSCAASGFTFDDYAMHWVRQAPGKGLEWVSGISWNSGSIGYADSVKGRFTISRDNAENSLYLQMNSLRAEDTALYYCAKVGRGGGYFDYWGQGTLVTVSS

The parent's heavy chain CDRs are GFTFDDYAMH, GISWNSGSIGYADSVK, VGRGGGYFDY; each variant's own CDRs replace them letter for letter.
All variants listed here change G100 of the VH, counted from its first residue.
Scale: log10 of Kd in nM, estimated from mating counts; low values are strong binders.
A mean of the replicates is given; it leaves out those without a signal.
Where no diploid with the target was found in any replicate, the entry reads "nd": below detection, most likely a poor binder, though not proof of it.
Order: sorted from the lowest average up, undetected variants last.

The variant GFTFDDYAMH / GISWNSGSIGYADSVH / VFRGGGYFDY showed 1.43 (3 of 3 replicates; controls 2 of 9). The variant GFTFDDYAMH / GISWNSGSIGYADSVK / VPRGGGYFDY gave 2.13 (3 of 3 replicates; controls 1 of 9). The variant GFTFEDYAMH / GISWNSGSIGYADTVK / VLRGGGYFDY gave 3.02 (3 of 3 replicates; controls 1 of 9). The variant GFTFDDYAMH / GISWNSGSIPYADSVF / VMRGGGYFDY gave 4.21 (2 of 3 replicates; controls 6 of 9). The variant GFTFDDYAMH / GISWNSGSIGRADSVK / VCRGGGYFDF gave 4.33 (1 of 3 replicates; controls 0 of 9). The variant GFIFDDYAMH / GVSWNSGSIGYADSVK / VPRGGGYFDY showed 4.34 (1 of 3 replicates; controls 2 of 9). For GFTFDDYAIH / GISWNSGSIGYADSVK / VFRGKGYFDY, the assay gave 4.44 (2 of 3 replicates; controls 2 of 9). The variant GFAFDDYAMH / GIYWNSGSIGYADSVK / VVRGGGYFDY showed 4.46 (2 of 3 replicates; controls 7 of 9).

With GFTFDDYAMH / GISWNSGGIGYADSVL / VRRGGGYFDY the result was 4.91 (2 of 3 replicates; controls 3 of 9). The variant KFTFDDYAMH / GISWNSGSIGYADSVK / VPRGGGYFHY showed 4.96 (3 of 3 replicates; controls 4 of 9). The variant GFTFDDYAMG / GISWNSGSIGYADSVK / VARGGGYFDW gave 5.01 (3 of 3 replicates; controls 8 of 9). For GFTFDDYAMH / GISWNSGSIGYADSVK / VWRGMAYFDY, the assay gave 5.13 (3 of 3 replicates; controls 4 of 9). The variant GFTFDDYAMH / GISINSGSIGYADSVK / VLRGTGYFDY gave 5.23 (1 of 3 replicates; controls 2 of 9). For GFTFDDYAMH / GISWNSGSIGYHDSVK / VYRGGGYFDY, the assay gave 5.25 (3 of 3 replicates; controls 5 of 9). The variant GFTFDDYWMH / GISWNSGSIGYADSVK / VYRGGGYFMY showed 5.29 (3 of 3 replicates; controls 5 of 9). The variant LFTFDDYAMH / GISWNSGSIGYADSVK / VERYGGYFDY gave 5.60 (1 of 3 replicates; controls 4 of 9).

The variant GFAFDDYAMH / GISWNSGIIGYADSVK / VVRGGGYFDY gave 5.65 (1 of 3 replicates; controls 4 of 9). The variant GLTFDDYAMH / GISWNSGSIGYADSVQ / VPRGGGYFDY gave 5.72 (1 of 3 replicates; controls 3 of 9). For GFTFDDYAMH / GISWNSGSICYADSVK / VNRGGGYFDA, the assay gave nd (0 of 3 replicates; controls 2 of 9). For GFTFDDFAMH / IISWNSGSIGYADSVK / VQRGGGYFDY, the assay gave nd (0 of 3 replicates; controls 0 of 9). The variant GFTFDDYAMH / GISWNSGSIGYADSVK / VNRGGGYFAY showed nd (0 of 3 replicates; controls 2 of 9). The variant GATFDDYAMH / TISWNSGSIGYADSVK / VARGGGYFDY gave nd (0 of 3 replicates; controls 1 of 9). The variant GGTFDDYAMH / GISWNSGSITYADSVK / VCRGGGYFDY gave nd (0 of 3 replicates; controls 0 of 9). The variant GFTFDDYAMH / GIPWNSGSIGCADSVK / VDRGGGYFDY gave nd (0 of 3 replicates; controls 4 of 9).

For GFTFDDYAMH / GISWNSGSIGYADSVK / VARGCGEFDY, the assay gave nd (0 of 3 replicates; controls 0 of 9). The variant GFTFDDYAMH / GIRWNSGSIGYADSVK / VHRGGGYFDY gave nd (0 of 3 replicates; controls 0 of 9). The variant GFTFDDGAMH / GISWNSGSIGYTDSVK / VTRGGGYFDY gave nd (0 of 3 replicates; controls 1 of 9). With GFTFDDYAMH / GISTNSGSIGYADSVK / VFRGGGAFDY the result was nd (0 of 3 replicates; controls 0 of 9). The variant GFTFDDQAMH / GISWNTGSIGYADSVK / VWRGGGYFDY gave nd (0 of 3 replicates; controls 1 of 9). The variant GHTFDDYAMH / GKSWNSGSIGYADSVK / VQRGGGYFDY showed nd (0 of 3 replicates; controls 0 of 9). For GFTFDDYAMH / GISWNSGSIGYADSVQ / VWRGGGYEDY, the assay gave nd (0 of 3 replicates; controls 0 of 9). With GFTFDDYAMH / GISWNDGSIGRADSVK / VPRGGGYFDY the result was nd (0 of 3 replicates; controls 0 of 9).

For GFTTDDYAMH / GISWNSGSIGYADSVK / VSRGGGYFDY, the assay gave nd (0 of 3 replicates; controls 0 of 9).

Picked from the list: the 4 lowest averages where every replicate gave a value.

{"CDR-H1": "GFTFDDYAMH", "CDR-H2": "GISWNSGSIGYADSVH", "CDR-H3": "VFRGGGYFDY", "log10 Kd (nM), mean": "1.43", "detected": "3/3", "signal with controls": "2/9"}
{"CDR-H1": "GFTFDDYAMH", "CDR-H2": "GISWNSGSIGYADSVK", "CDR-H3": "VPRGGGYFDY", "log10 Kd (nM), mean": "2.13", "detected": "3/3", "signal with controls": "1/9"}
{"CDR-H1": "GFTFEDYAMH", "CDR-H2": "GISWNSGSIGYADTVK", "CDR-H3": "VLRGGGYFDY", "log10 Kd (nM), mean": "3.02", "detected": "3/3", "signal with controls": "1/9"}
{"CDR-H1": "KFTFDDYAMH", "CDR-H2": "GISWNSGSIGYADSVK", "CDR-H3": "VPRGGGYFHY", "log10 Kd (nM), mean": "4.96", "detected": "3/3", "signal with controls": "4/9"}

For reference, the parent read 1.86 as the reference entry and 0.88 as a member of this library.
As a blank, each scFv also met three strains without target: over library AAYL51, 21% of these pairings were detected, typically at 4.54 and seldom below 3.26. Also given: how often the same scFv was detected with the empty control strains.

Data: MIT Lincoln Laboratory AlphaSeq set, Engelhart et al. 2022, doi:10.1038/s41597-022-01779-4, as distributed in FLAb.